Laboratory results: ChEMBL document CHEMBL3763052, “Novel N-acyl-carbazole derivatives as 5-HT7R antagonists” (Eur J Med Chem, 2016)

Protein sequences, listed by entry. Tags and fused reporters are not part of them.
UniProt P34969, whole entry: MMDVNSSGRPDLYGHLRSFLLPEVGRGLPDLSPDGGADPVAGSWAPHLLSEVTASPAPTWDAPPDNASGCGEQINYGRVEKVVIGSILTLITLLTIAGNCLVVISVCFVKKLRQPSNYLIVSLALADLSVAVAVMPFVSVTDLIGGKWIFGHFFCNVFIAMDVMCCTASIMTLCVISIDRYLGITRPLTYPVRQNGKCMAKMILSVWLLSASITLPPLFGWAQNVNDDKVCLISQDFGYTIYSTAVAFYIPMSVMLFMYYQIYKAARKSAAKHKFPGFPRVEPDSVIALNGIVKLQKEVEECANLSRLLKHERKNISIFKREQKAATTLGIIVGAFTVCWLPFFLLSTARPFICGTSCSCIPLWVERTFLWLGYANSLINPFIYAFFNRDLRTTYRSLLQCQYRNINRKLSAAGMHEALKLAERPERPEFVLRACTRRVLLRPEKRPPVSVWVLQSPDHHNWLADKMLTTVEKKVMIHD

Molecular target: 5-hydroxytryptamine receptor 7 (Homo sapiens, UniProt P34969)
Assay: Displacement of [3H]LSD from 5-HT7 receptor (unknown origin) expressed in CHO-K1 cells by liquid scintillation counting method
Type: cell-based

Row | Compound | Ki
1 | CC1CCN(CCCCCC(=O)n2c3ccccc3c3ccccc32)CC1 | 364 nM
2 | CN(CCCCCC(=O)n1c2ccccc2c2ccccc21)Cc1ccccc1 | 604 nM
